{"source": "patent US8916516B2", "about": "“Treatment of fungal and/or protist infections” (AI2 Limited, priority 2005, dated 2014)", "tested_on": "fungi", "assay_type": "cell-based", "details": "overall statement on the fungi tested", "description": "Four compounds were supplied as an aqueous solution, 400 μM. Serial dilutions of each test peptide were prepared in addition to a control, which was a conventional antifungal drug, Amphoteracin B. Amphteracin B is obtained from Invitrogen or Melford laboratories.\nInitial testing of the peptides was carried out against the following organisms: • 1) Aspergillus fumigatus AF293 (culture collection strain NCPF7367) • 2) Candida albicans 6862 (clinical isolate) • 3) Fusarium spp 5889 (clinical isolate) • 4) Fusarium spp 6507 (clinical isolate) • 5) Aspergillus terreus (clinical isolate) • 6) Aspergillus niger (clinical isolate) • 7) Staphylococcus aureus (Oxford strain, which is a standard reference strain used in MIC testing)\nThe bacterium S. aureus was tested with each of the peptides as a control. A suspension of each organism in an appropriate growth medium was added to the, dilutions of the peptides in order to give concentration ranges of 40 μM to 0.04 μM for each of the peptides, and 64-0.025 μg/ml for amphotericin B. Fungal strains were tested in RPMI media. RPMI is standard Roswell Park Memorial Institute medium (Morton, H. C., (1970) A survey of Commercially Available Tissue Culture Media. In Vitro 6: 89-108).\nCandida and S. aureus plates were read after 24 hrs incubation and the Aspergillus and Fusarium strains read after 48 hrs. […]", "data": [{"sequence": "QSTEELRVRLASHLRKLRKRLL (Artificial polypeptide designated GIN 11) [contains only one RKR motif]", "values": [{"measurement": "antifungal activity (in words)", "result": "useful antifungal agent"}]}]}
